Reference: BindingDB's records for doi:10.1021/bi400740x (North Dakota State University, 2013)

How the values were obtained:
Histone deacetylase 8 [1] = biological target: T1, Histone deacetylase 8 (Homo sapiens, UniProt Q9BY41); assay: HDAC8 Inhibition Assay (kinetic method)
T1 sequence (Q9BY41 whole entry): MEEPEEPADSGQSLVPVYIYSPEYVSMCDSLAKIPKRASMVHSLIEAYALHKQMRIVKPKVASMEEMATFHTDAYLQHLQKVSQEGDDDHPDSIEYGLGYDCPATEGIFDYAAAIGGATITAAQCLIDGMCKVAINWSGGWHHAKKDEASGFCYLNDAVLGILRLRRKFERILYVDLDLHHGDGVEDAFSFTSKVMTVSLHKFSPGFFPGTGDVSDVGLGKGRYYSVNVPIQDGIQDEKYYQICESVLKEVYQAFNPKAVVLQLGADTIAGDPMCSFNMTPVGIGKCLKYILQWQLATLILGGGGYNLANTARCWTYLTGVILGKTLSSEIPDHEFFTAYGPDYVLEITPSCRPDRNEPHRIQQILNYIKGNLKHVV
Protocol: To determine the dissociation rate of the inhibitor, 1 µM HDAC8 and 20 µM inhibitor (syringe I) were mixed with 100 µM c-SAHA (syringe II) via the stopped-flow system. The fluorescence was measured at 325 nm with a 395 nm cutoff filter.

Histone deacetylase 8 [2] = biological target: T1, Histone deacetylase 8; assay: HDAC8 Inhibition Assay (spectrofluorometric titration); settings: pH 7.5

O=C(CCCCCCC(=O)Nc1ccccc1)NO [Zolinza]
Kd (Histone deacetylase 8 [1]): 6.8 µM
Kd (Histone deacetylase 8 [2]): 1200 nM
